Measurements reported in paper PMC5080452 (Bioorganic & Medicinal Chemistry, 2016).

Assay: PAMPA-BBB brain permeability assay
Conditions: class from PAMPA-BBB Pe

With `CC1=C[C@@H]2Cc3nc4cc(Cl)ccc4c(NCCCCCCCCCCC#N)c3[C@H](C1)C2` the BBB permeation prediction was “CNS+ (compounds of high BBB permeation (CNS+): Pe (10^−6 cm s^−1) > 5.17)”.
